In BindingDB's records for doi:10.1021/jm015521r (Research Triangle Institute, 2001):

Assay: Inhibition of stimulation of [35S]GTP-gamma-S, binding produced by the selective agonist (SNC-80, delta-receptor), in guinea pig caudate membranes

Compound: CC(C)[C@@H](CN1CC[C@@](C)(c2cccc(O)c2)[C@@H](C)C1)NC(=O)C1Cc2ccc(O)cc2CN1 (stereo partly specified) [7-Hydroxy-1,2,3,4-tetrahydro-isoquinoline-3-carboxylic acid {1-[4-(3-hydroxy-phenyl)-3,4-dimethyl-piperidin-1-ylmethyl]-2-methyl-propyl}-amide]
- Ki: > 300 nM
